# Measurements from patent US12559506B2, “Indazole based compounds and associated methods of use” (Arvinas Operations, Inc., priority 2021, dated 2026).
# By UniProt entry, the sequences of proteins in these tests, tags left out.
# UniProt Q5S007, whole entry: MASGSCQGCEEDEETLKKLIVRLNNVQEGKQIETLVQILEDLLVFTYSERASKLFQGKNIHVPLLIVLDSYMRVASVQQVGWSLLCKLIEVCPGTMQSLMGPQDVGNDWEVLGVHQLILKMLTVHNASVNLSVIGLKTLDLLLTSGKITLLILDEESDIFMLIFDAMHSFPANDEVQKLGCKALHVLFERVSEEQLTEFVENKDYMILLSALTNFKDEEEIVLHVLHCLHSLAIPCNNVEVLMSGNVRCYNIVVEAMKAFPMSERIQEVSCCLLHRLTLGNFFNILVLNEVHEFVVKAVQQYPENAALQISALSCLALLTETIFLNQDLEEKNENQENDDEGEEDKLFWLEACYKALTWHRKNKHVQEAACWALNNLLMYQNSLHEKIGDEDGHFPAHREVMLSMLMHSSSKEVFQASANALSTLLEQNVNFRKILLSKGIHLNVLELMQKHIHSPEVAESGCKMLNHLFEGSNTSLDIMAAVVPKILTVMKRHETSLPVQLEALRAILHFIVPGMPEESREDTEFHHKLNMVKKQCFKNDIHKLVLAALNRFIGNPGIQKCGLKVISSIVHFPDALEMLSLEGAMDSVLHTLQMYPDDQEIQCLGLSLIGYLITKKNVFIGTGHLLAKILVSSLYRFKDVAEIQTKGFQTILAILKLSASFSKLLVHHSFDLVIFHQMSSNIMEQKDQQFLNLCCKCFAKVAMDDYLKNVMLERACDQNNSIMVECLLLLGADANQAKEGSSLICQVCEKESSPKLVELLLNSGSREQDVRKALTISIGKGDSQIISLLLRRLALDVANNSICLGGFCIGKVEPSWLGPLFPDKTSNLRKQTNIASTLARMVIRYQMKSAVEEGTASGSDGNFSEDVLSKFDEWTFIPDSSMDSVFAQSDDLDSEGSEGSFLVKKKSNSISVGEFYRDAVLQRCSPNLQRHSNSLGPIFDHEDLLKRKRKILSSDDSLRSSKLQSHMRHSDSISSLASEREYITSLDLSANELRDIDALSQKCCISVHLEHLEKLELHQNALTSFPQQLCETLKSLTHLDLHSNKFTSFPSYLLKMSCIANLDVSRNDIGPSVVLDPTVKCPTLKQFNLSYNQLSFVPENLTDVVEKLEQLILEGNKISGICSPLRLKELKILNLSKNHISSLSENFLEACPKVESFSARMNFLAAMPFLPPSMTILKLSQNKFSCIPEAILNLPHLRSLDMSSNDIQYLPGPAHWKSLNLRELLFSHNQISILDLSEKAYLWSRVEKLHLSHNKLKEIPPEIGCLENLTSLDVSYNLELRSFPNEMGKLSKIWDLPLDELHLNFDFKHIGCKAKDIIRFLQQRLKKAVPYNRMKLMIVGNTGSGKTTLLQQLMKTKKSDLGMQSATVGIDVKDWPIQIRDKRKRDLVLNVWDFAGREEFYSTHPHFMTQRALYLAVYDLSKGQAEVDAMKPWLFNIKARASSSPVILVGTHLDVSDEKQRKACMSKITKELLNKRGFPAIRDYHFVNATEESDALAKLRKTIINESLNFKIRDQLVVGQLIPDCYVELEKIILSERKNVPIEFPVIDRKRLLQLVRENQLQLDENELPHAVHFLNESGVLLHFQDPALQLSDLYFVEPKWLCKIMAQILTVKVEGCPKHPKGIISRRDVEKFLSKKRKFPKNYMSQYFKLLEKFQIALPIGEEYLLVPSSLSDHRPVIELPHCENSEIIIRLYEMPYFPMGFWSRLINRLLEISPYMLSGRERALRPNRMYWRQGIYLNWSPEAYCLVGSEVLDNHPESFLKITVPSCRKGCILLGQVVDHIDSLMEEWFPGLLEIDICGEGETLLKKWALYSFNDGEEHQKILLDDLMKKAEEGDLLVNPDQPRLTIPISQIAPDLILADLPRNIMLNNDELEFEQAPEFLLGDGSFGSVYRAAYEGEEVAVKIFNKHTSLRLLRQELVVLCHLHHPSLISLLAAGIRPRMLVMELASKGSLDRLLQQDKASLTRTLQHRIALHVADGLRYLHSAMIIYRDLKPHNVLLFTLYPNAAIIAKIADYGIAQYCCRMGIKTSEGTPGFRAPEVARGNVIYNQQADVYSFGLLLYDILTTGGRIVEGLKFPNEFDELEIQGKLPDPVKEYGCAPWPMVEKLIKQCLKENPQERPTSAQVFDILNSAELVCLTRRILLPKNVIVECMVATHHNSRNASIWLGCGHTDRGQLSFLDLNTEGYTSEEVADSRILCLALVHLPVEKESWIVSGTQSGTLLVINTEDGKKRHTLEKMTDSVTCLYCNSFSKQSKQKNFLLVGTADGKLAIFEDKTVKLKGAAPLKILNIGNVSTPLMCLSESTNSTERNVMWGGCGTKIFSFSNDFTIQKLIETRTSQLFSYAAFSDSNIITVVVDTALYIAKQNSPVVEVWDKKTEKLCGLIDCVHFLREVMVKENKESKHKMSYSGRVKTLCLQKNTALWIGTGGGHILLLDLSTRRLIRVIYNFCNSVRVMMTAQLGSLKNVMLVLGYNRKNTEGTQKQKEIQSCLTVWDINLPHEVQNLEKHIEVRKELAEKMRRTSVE
# Target: LRRK2 (endogenous, HiBit tagged) (Homo sapiens, UniProt Q5S007)
# Assay: Endogenous LRRK2 degradation assay, endogenous gene C-terminally HiBit-tagged in HEK293 cells (Nano-Glo Dual Luciferase)
# Source text: Exemplary Assay for Testing LRRK2 Degradation Driven by Exemplary Hetero-Bifunctional Compounds Designed to Target LRRK2
# The assay measures the degradation of LRRK2 in cells where the C-terminus (3′) of the endogenous gene has been tagged with a HiBit sequence in HEK293 cells. The cells also express firefly luciferase, expressed from a Cytomegalovirus promoter and introduced into the HiBit tagged cells and stably expressed. The Nano-Glo® Dual Luciferase Reporter Assay System (Promega™, Madison, WI) was utilized.
# Day 1—Preparation of Compound and Assay Plates. Two sets of plates were prepared: a triplicate set for the HiBit assay in white 384-well plates and a triplicate set of plate in black 384-well plates for the Alamar Blue cell viability assay. Briefly, the growth media (DMEM+Glutamax-10% fetal bovine serum-1% Penicillin-Streptomicin) from two T128 flasks was aspirated from the flasks. Cells were washed with Dulbecco's Phosphate Buffered Saline (dPBS) and aspirated. […]
# Day 3—HiBit Assay. […] Fluorescence of each plate was read on a plated reader for the Alamar Blue viability assay. […]
# The One Glo luciferase mixture was prepared. […] The luminescence of each plate was read on a plate reader.
# 1:100 DLR substrate and 1:100 LgBiT Protein dilution were added to the Promega Stop and Glo buffer and mixed just before addition to assay plates. […] The luminescence of each plate was read on a plate reader. […]
compound,measurement,setting,value
C[C@H]1CN(c2cc(-c3n[nH]c4ccc(OC5(C)CC5)cc34)ncn2)CCN1CC1(F)CCN(CC2CCN(c3cc4c(cc3F)C(=O)N(C3CCC(=O)NC3=O)C4)CC2)CC1 (some centres unmarked),**Endogenous WT Dmax (%),24 hours,A (A ≥ 70)
same,DC50,"read-out: *Endogenous WT DC50, 24 hours",< 10 nM
